We go through one molecule from patent US11147819B2, “EZH2 inhibitors for treating cancer” (Epizyme, Inc., priority 2016, dated 2021).

Structures are written as SMILES.

In the experiment the test system is mutant EZH2 DLBCL cell lines. The experiment can be described thus: Apoptosis and differentiation in DLBCL cell lines. In kind it is cell-based. To be noted: cells with mutant EZH2.

Consider `CCN(c1cc(-c2ccc(CN3CCOCC3)cc2)cc(C(=O)NCc2c(C)cc(C)[nH]c2=O)c1C)C1CCOCC1` [tazemetostat], for which the apoptosis following treatment result is on record as “undergo apoptosis”.
